Literature values in paper PMC6222802 (Molecules : A Journal of Synthetic Chemistry and Natural …, 2018).

Key:
Conditions in all cases: 30 µg/mL; ref Li et al.; cited from earlier work
HepG2 cells = tested on: HepG2 cells
HCT1116 cells = tested on: HCT1116 cells
MCF-7 cells = tested on: MCF-7 cells
A549 cells = tested on: A549 cells

COc1ccc(OP(=O)(Cl)N(CCCl)CCCl)cc1 (stereo not shown)
inhibition rate, HepG2 (HepG2 cells): 88%
inhibition rate, HCT1116 (HCT1116 cells): 68%
inhibition rate, MCF-7 (MCF-7 cells): 73%
inhibition rate, A549 (A549 cells): 40%
